Results as given in PubChem BioAssay AID743019 (Broad Institute, 2013).
The entries are a selection whose mix differs from that of the whole data set. Active and inactive are the calls of the source.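 How the source made its calls: active means rising signal whose fitted curve reaches the 0.54 level within the top valid dose, showing a melting point (actives reach about 13 µM in these data); inactive means the rest, including activity in the opposite direction.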

experiment: compound-only thermal shift signal without protein, dose response, artefact control for FGF22 binder project, biochemical, cherry-picked samples, RT-PCR instrument (AID 743019); settings: compound-only SYPRO orange thermal shift counter-screen, no protein; at 38 µM (top of the series); further: value is where the raw curve crosses a fixed level and not half-maximal

Structure (SMILES) | outcome
CN(Cc1cccnc1)C(=O)COc1ccc(Cl)c(Cl)c1.O=[N+]([O-])c1cc([N+](=O)[O-])c(O)c([N+](=O)[O-])c1 | inactive
CCN(CC)CCCNc1ccccc1[N+](=O)[O-].O=[N+]([O-])c1cc([N+](=O)[O-])c(O)c([N+](=O)[O-])c1 | inactive
